Experimental data from patent US9040523B2, “Antifungal 5,6-dihydro-4H-pyrrolo[1,2-α][1,4]-benzodiazepines and 6H-pyrrolo[1,2-α][1,4]benzodiazepines substituted with benzene derivatives” (JANSSEN PHARMACEUTICA NV, priority 2010, dated 2015).

Protein sequences, listed by entry. Tags and fused reporters are not part of them. Residues count along the entry.
UniProt P08684, 2-503: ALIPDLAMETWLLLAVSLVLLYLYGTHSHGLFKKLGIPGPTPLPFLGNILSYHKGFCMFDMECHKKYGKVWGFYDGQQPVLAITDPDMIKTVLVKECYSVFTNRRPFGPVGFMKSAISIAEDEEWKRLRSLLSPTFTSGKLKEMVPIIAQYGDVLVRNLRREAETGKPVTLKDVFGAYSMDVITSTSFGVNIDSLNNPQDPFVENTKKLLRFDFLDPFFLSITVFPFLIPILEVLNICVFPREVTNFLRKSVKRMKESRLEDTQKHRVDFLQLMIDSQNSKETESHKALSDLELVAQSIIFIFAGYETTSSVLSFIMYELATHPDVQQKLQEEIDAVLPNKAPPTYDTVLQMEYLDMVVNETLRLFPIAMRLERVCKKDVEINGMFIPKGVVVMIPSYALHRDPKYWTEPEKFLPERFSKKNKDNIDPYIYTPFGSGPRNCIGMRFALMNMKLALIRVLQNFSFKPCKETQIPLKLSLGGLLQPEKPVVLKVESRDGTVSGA
UniProt P10632, whole entry: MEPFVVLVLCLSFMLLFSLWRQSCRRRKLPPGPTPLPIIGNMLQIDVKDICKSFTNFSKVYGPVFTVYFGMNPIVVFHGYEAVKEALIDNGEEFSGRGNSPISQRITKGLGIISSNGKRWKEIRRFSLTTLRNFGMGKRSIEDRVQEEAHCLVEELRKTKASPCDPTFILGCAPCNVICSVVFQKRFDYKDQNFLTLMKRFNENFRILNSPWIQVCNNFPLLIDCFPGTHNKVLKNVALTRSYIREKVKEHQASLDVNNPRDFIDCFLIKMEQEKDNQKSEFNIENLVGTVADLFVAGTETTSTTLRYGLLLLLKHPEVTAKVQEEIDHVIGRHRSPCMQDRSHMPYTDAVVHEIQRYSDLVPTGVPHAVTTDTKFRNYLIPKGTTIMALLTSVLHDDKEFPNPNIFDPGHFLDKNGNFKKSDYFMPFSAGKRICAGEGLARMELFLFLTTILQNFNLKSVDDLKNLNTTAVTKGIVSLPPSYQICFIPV

What was measured:
CYP3A4/5 = CYP3A4/5 (Homo sapiens, UniProt P08684); assay: in vitro; conditions: liver microsomes, pH 7.4, probe midazolam (2 microM), 3A4_mido pIC50, human liver microsomes 0.2 mg/ml
[1] = tested on: Trichophyton mentagrophytes B70554; assay: Antifungal activity in vitro (resazurin susceptibility screen), Inf. G; type: cell-based; conditions: 27 °C, 7 days, resa time 24 hours, read-out: Inf. G pIC50 (converted)
[2] = tested on: Candida parapsilosis B66126; assay: Antifungal activity in vitro (resazurin susceptibility screen), Inf. D; type: cell-based; conditions: Lodderomyces parapsilosis, 37 °C, 24 hours, resa time 4 hours, read-out: Inf. D pIC50 (converted)
Microsporum canis B68128 = assay: Antifungal activity in vitro (resazurin susceptibility screen), Inf. B; conditions: B68128, read-out: Inf. B pIC50, Microsporum canis B68128 (converted), 27 °C, 9 days, resa time 24 hours
Cytochrome P450 2C8 = biological target: T1, Cytochrome P450 2C8 (Homo sapiens, UniProt P10632); assay: Human liver microsomal cytochrome P450 cocktail inhibition assay, Protocol C; type: in vitro ADME; conditions: human liver microsomes 0.2 mg/ml, probe amodiaquine 2 microM
T1 construct: tissue BD Gentest; host or cells: human liver microsomes

SMILES | IC50 at 10 min (CYP3A4/5) [µM] | further results
CCc1ccc(C2NCc3c(Cl)cccc3-n3cccc32)cc1 (stereo not drawn) | 6.31 | 
CC(=O)c1cccc(C2NCc3c(Cl)cccc3-n3cccc32)c1 (stereo not drawn) [Compound 4, 1-[3-(7-chloro-5,6-dihydro-4H-pyrrolo[1,2-a][1,4]benzodiazepin-4-yl)phenyl]-ethanone] |  | IC50 [1]: 25.1 µM
CC(=O)c1ccc(C2NCc3c(Cl)cccc3-n3cccc32)cc1.Cl (stereo not drawn) [Compound 5, 1-[4-(7-chloro-5,6-dihydro-4H-pyrrolo[1,2-a][1,4]benzodiazepin-4-yl)phenyl]-ethanone .HCl] |  | IC50 [2]: 7.94 µM; IC50 (Microsporum canis B68128): 0.794 µM
CC(=O)c1ccc(C2=NCc3c(Cl)cccc3-n3cccc32)cc1 [drawing 91] | > 10 | 
CCc1ccc(C2=NCc3c(Cl)cccc3-n3cccc32)cc1 [drawing 92] | > 10 | 
CC(=O)c1ccc(C2NCc3c(Cl)cccc3-n3cccc32)cc1 (stereo not drawn) [drawing 94] | 7.94 | IC50 (Cytochrome P450 2C8; read-out: 2C8_Amod pIC50 (converted)): 7.94 µM
Br.CC(=O)c1ccc(C2NCc3c(Cl)cccc3-n3cccc32)cc1 (stereo not drawn) [drawing 96] |  | 2C8_Amod pIC50 (Cytochrome P450 2C8): 5.1
CC(O)c1ccc(C2NCc3c(Cl)cccc3-n3cccc32)cc1 (stereo not drawn) [drawing 97] | > 10 | 
CC(=O)c1cccc(C2NCc3c(Cl)cccc3-n3cccc32)c1 (stereo not drawn) [drawing 99] | 2.51 | 
CC(=O)c1ccc(C2NCc3ccc(Cl)cc3-n3cccc32)cc1 (stereo not drawn) [drawing 101] | 10 | 
